Among the data in US7150974B1, “Parathyroid hormone receptor binding method” (The General Hospital Corporation, priority 1991, dated 2006) are Kd values, retold here.

Assay [1] has as its target T1, human kidney PTH/PTHrP receptor (Homo sapiens, UniProt Q03431, L389Q).
T1 construct: The full-length human kidney PTH/PTHrP receptor cDNA, HKrk, was constructed using the BamHI/PvuII fragment of PCR clone #2 and HK-2; expressed in transfected cells; host or cells: COS-7 cells, transient (DEAE/Dextran), pcDNAI
T1 sequence (Q03431 27-593 L389Q): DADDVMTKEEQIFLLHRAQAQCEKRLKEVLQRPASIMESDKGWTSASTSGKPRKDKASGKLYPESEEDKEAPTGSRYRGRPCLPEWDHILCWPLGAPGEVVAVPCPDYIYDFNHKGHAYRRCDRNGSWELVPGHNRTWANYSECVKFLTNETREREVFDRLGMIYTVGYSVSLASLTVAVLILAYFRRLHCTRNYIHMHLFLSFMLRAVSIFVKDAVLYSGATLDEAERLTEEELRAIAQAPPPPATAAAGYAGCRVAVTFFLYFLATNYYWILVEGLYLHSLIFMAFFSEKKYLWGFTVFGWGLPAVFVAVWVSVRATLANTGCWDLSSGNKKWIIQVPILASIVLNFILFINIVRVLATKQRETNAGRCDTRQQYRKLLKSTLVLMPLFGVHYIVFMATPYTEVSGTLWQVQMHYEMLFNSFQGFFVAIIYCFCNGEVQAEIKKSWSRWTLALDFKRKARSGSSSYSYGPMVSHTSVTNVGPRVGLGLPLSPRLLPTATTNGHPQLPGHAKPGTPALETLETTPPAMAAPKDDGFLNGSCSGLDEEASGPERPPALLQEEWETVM
Description: Radioreceptor assay, COS-7 cells transiently expressing human kidney PTH/PTHrP receptor (HKrk). The conditions noted are these: read-out: apparent Kd (affinity); HKrk expressed in COS-7 cells; competition binding, FIGS. 17A, 17C. As for the experimental part: (§1) In brief, the labeled peptide was dissolved in 0.1% trifluoracetic acid (TFA), applied to a C18 Sep-pak cartridge (Waters Associates, Inc., Milford, Mass.) and eluted with a solution of 60% acetonitrile in 0.1% TFA. After lyophilization, the radioligand then was applied to C18-μBondapak column (3.9 mm×30 cm. Waters Associates) and eluted over 30 min with a linear gradient of 30-50% acetonitrile-0.1% TFA at a flow rate of 2 ml/min.
(§2) COS-7 cells were grown in 15 cm plates in DMEM, 10% heat-inactivated […], 10 mg/L gentamycin until 80-90% confluent. Twenty-four hours after transfection by the DEAE/Dextran method (Sambrook et al., supra), with 1-2 μg of plasmid DNA, the cells were trypsinized and replated in multiwell plastic dishes (16 or 35 mm diameter, Costar, Cambridge, Mass.) at a cell concentration of 5×10^4 cells/cm^2). […] After continuing culture for another 48 h, radiorecepter assays were performed. The culture medium was replaced with buffer containing 50 mM Tris-HCL (pH 7.7), 100 mM NaCl, 2 mM CaCl2, 5 mM KCL, 0.5% heat-inactivated fetal bovine serum (GIBCO), and 5% heat-inactivated horse serum (KC Biological Inc., Lenexa, Kans.) immediately before studies were initiated.
(§3) Incubations were terminated by aspirating the buffer, and repeatedly (×3) washing the culture dishes, containing the adherent cells with chilled 0.9% NaCl solution, over a 15 sec period. Cell-bound radioactivity was recovered by the sequential addition (×3) of 1 N NaOH (200 μl) to each well. After 30 min at room temperature, the NaOH was transferred to a glass tube. A second and third extraction with 1 N NaOH (200 μl) were combined with the first, and the total radioactivity was counted in a γ-spectrometer (Packard Instruments, Downers Grove, Ill.).

Assay [2] deals with T2, rat bone PTH/PTHrP receptor (Rattus norvegicus, UniProt P25961, E586G).
T2 construct: expressed in transfected cells; host or cells: COS / COS-7 cells, transient, plasmid R15B (pcDNA I)
T2 sequence (P25961 27-591 E586G): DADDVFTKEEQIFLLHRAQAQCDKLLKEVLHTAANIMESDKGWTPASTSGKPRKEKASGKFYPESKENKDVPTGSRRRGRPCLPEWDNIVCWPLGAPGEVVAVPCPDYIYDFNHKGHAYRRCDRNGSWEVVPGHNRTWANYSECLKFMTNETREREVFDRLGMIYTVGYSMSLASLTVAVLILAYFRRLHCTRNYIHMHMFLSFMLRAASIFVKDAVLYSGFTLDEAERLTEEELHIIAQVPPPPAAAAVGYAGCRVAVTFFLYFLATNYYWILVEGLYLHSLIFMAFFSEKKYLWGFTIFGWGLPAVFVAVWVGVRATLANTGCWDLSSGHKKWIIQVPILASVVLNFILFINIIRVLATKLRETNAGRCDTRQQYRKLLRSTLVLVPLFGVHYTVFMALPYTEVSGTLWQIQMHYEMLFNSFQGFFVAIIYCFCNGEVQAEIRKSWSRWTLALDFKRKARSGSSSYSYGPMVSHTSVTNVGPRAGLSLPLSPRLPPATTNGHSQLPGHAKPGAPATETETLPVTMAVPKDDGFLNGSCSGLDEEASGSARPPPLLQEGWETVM
The assay is described as follows: Radioreceptor assay, COS cells expressing rat bone PTH/PTHrP receptor (R15B). The conditions noted are these: read-out: apparent Kd (affinity); R15B expressed in COS-7 cells; competition binding, FIGS. 17B, 17D. As for the experimental part:
as §1, §2, §3

Consider [Nle^8,18, Tyr^34]bPTH(1-34)amide, for which the Kd in assay [1] is around 0.005 µM; in assay [2] it was around 0.01 µM.
On the same counts, the results for [Nle^8,18, Tyr^34]bPTH(7-34)amide are around 0.06 µM and around 2 µM.
[Nle^8,18, Tyr^34]bPTH(3-34)amide: the Kd was around 0.007 µM in assay [1] and around 0.045 µM in assay [2].
